Earlier results, collected in US20260224567A1, “METHODS FOR TREATING NEUROBLASTOMA WITH A DUAL ANAPLASTIC LYMPHOMA KINASE AND FOCAL ADHESION KINASE INHIBITOR” (The Regents of the University of Michigan, priority 2023, published 2026).

Sequences of proteins named here, by UniProt entry; tags and fusion partners are left off.
UniProt Q05397, whole entry: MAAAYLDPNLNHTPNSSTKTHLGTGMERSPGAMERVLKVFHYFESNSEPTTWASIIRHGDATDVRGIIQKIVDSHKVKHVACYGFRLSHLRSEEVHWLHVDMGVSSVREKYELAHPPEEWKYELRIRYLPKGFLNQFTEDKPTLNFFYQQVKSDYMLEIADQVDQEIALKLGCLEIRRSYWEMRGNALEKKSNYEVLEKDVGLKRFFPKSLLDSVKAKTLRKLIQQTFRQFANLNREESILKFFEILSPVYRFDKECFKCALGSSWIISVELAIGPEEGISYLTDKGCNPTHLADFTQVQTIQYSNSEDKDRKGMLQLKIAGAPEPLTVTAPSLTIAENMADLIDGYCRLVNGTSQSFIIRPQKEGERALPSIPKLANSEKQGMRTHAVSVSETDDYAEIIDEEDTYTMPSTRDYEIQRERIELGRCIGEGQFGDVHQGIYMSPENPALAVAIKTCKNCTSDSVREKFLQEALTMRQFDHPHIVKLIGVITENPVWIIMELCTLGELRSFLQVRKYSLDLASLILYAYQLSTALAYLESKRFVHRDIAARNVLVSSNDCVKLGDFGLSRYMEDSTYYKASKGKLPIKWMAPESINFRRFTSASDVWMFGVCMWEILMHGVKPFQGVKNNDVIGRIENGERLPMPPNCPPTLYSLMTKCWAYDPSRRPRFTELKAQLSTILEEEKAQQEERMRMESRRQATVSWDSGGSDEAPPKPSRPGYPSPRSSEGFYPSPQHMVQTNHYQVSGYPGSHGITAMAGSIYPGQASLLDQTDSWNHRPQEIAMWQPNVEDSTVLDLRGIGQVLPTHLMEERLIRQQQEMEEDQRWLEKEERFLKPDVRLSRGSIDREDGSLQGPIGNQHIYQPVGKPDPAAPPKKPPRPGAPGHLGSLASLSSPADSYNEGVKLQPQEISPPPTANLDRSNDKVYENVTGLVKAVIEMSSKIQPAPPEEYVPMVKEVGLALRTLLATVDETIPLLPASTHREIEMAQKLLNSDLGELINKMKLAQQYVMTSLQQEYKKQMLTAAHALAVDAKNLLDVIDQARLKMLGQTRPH

Molecular target: FAK (Homo sapiens, UniProt Q05397)
Settings: Ott et al., J Med Chem 2016; cited from earlier work

In the case of `CNC(=O)c1ccccc1Nc1nc(Nc2ccc3c(c2OC)CCC[C@H](N2CCN(CCO)CC2)C3)ncc1Cl` [ESK440, (S)-2-((5-chloro-2-((6-(4-(2-hydroxyethyl)piperazin-1-yl)-1-methoxy-6,7,8,9-tetrahydro-5H-benzo[7]annulen-2-yl)amino)pyrimidin-4-yl)amino)-N-methylbenzamide], the “inhibition of enzymatic and cellular biochemical activity of FAK” value is given as “low nanomolar concentrations”.
